According to patent US6528619:

Biological target: cell surface-associated uPA receptor (uPAR) on PMA-stimulated human U937 cells (human), Q03405
Assay: flow cytometry, competition with FITC-pro-uPA on U937 cells

molar excess for 50% inhibition of the binding of uPA (fold molar excess): 15000
B1: uPA12-32 [C19A], P00749 32-52 (peptide, UniProt P00749 32-52, looked up)
peptide: DCLNGGTAVSNKYFSNIHWCN
modifications: not checked
